Laboratory results reported in patent EP2695950A1, “Markers for responsiveness to an inhibitor of the fibroblast growth factor receptor” (Blackfield AG, priority 2012, dated 2014).

How the values were obtained:
[1] = tested on: H1581 cells; conditions: Figure 10; compared to control cell line H358
[2] = tested on: NIH3T3 cells co-expressing FGFR1 together with c-Myc; conditions: Figure 1; treatment with increasing concentrations; massive colony formation of FGFR1 + c-Myc cells
Protocol: Growth medium containing indicated compound concentrations was added on top.

[3] = tested on: cell lines with FGFR1 amplification expressing high amounts of FGFR and Myc; conditions: Figure 11; 1µM, over time

Compound: CCN(CC)CCCCNc1ncc2cc(-c3cc(OC)cc(OC)c3)c(NC(=O)NC(C)(C)C)nc2n1 [PD173074]
- cytochrome c relase [1]: cytochrome c relase
- colony formation in soft agar [2]: invertible
- mitochondrial potential breakdown [3]: mitochondrial potential breakdown
